Target: T1, Kv1.3 (Mus musculus, UniProt P16390)
T1 construct: pharmacological characterization of currents from cultured microglia stimulated for 48 hours with AbO or LPS; endogenous in cells; host or cells: primary microglia cultured from newborn C57Bl/6 mice, stimulated 48 h with AbO or LPS
Experiment: Whole-cell voltage-clamp of Kv currents in cultured stimulated microglia
Assay type: cell-based
Settings: cultured microglia stimulated for 48 hours with AbO; read-out: IC50 on microglial Kv current
Experimental: In order to determine if Kv1.3 is indeed functionally expressed in mouse microglia Applicants performed electrophysiological experiments on cultured mouse microglia in the whole-cell mode of the patch-clamp technique. Kv currents were elicited with 500 millisecond pulses from a holding-potential of −100 mV to +40 mV applied every 45 sec.
Microglia cultured from newborn C57B1/6 mice were treated with lipopolysaccharides (LPS) or AbO for 24 or 48 hrs. […] Kv currents were elicited by 500 ms voltage steps from −80 to 40 mV (representative traces on right).

By UniProt entry, the sequences of proteins in these tests, tags left out.
UniProt P16390, whole entry: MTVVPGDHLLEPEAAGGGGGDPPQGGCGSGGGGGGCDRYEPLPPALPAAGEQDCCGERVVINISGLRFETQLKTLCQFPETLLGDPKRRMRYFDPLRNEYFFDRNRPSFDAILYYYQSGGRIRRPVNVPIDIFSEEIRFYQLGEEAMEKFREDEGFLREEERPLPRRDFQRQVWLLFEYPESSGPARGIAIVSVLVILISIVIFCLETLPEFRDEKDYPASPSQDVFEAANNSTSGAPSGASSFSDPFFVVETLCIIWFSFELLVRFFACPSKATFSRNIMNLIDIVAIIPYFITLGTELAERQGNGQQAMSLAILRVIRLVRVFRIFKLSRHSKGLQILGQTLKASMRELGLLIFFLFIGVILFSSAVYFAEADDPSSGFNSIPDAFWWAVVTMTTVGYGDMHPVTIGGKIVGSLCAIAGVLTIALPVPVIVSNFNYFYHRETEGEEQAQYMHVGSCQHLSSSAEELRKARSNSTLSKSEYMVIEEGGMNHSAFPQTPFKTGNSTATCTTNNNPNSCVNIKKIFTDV

With `CC[C@H](C)[C@@H]1NC(=O)[C@@H](NC(=O)[C@H](CO)NC(=O)[C@H](CCCNC(=N)N)NC(=O)COCCOCCNC(=O)[C@@H](N)Cc2ccc(OP(=O)(O)O)cc2)CSSC[C@@H](C(N)=O)NC(=O)[C@H]([C@@H](C)O)NC(=O)CNC(=O)[C@@H]2CSSC[C@@H]3NC(=O)[C@H](CCC(N)=O)NC(=O)[C@H](Cc4ccccc4)NC(=O)[C@H](C)NC(=O)[C@H]([C@@H](C)O)NC(=O)[C@H](CSSC[C@H](NC(=O)[C@H](Cc4ccccc4)NC(=O)[C@H](CO)NC(=O)[C@H](CC(C)C)NC(=O)[C@H](CCCNC(=N)N)NC(=O)[C@H](Cc4ccc(O)cc4)NC(=O)[C@H](CCCCN)NC(=O)[C@H](CCSC)NC(=O)[C@H](CO)NC(=O)[C@H](Cc4c[nH]cn4)NC(=O)[C@H](CCCCN)NC3=O)C(=O)N[C@@H](CCCNC(=N)N)C(=O)N[C@@H](CCCCN)C(=O)N[C@@H]([C@@H](C)O)C(=O)N2)NC(=O)[C@H](CCCNC(=N)N)NC(=O)[C@H](CO)NC(=O)[C@H](CCCCN)NC(=O)[C@@H]2CCCN2C(=O)[C@H]([C@@H](C)CC)NC(=O)[C@H]([C@@H](C)O)NC(=O)[C@H](CC(=O)O)NC1=O` [ShK-186] as the compound, how does the IC50 read?
Its IC50 is 68.5 pM.
